This assay deals with T1, single-stranded DNA-binding protein (SSB), two-hybrid fusion (E. coli, UniProt P0AGE0 1-178).
T1 sequence (looked up): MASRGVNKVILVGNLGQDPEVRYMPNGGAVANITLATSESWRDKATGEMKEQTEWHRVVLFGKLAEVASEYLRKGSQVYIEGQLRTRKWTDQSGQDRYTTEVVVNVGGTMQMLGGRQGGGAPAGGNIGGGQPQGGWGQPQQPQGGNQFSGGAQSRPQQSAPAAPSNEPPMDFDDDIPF
Put plainly: cell-based or functional assay.

B1: WT γ complex clamp loader (γ3δδ′ψχ) (complex, E. coli)
chain 1: MSYQVLARKWRPQTFADVVGQEHVLTALANGLSLGRIHHAYLFSGTRGVGKTSIARLLAKGLNCETGITATPCGVCDNCREIEQGRFVDLIEIDAASRTKVEDTRDLLDNVQYAPARGRFKVYLIDEVHMLSRHSFNALLKTLEEPPEHVKFLLATTDPQKLPVTILSRCLQFHLKALDVEQIRHQLEHILNEEHIAHEPRALQLLARAAEGSLRDALSLTDQAIASGDGQVSTQAVSAMLGTLDDDQALSLVEAMVEANGERVMALINEAAARGIEWEALLVEMLGLLHRIAMVQLSPAALGNDMAAIELRMRELARTIPPTDIQLYYQTLLIGRKELPYAPDRRMGVEMTLLRALAFHPRMPLPEPEVPRQSFAPVAPTAVMTPTQVPPQPQSAPQQAPTVPLPETTSQVLAARQQLQRVQGATKAKKE
chain 2: MIRLYPEQLRAQLNEGLRAAYLLLGNDPLLLQESQDAVRQVAAAQGFEEHHTFSIDPNTDWNAIFSLCQAMSLFASRQTLLLLLPENGPNAAINEQLLTLTGLLHDDLLLIVRGNKLSKAQENAAWFTALANRSVQVTCQTPEQAQLPRWVAARAKQLNLELDDAANQVLCYCYEGNLLALAQALERLSLLWPDGKLTLPRVEQAVNDAAHFTPFHWVDALLMGKSKRALHILQQLRLEGSEPVILLRTLQRELLLLVNLKRQSAHTPLRALFDKHRVWQNRRGMMGEALNRLSQTQLRQAVQLLTRTELTLKQDYGQSVWAELEGLSLLLCHKPLADVFIDG
chain 3: MRWYPWLRPDFEKLVASYQAGRGHHALLIQALPGMGDDALIYALSRYLLCQQPQGHKSCGHCRGCQLMQAGTHPDYYTLAPEKGKNTLGVDAVREVTEKLNEHARLGGAKVVWVTDAALLTDAAANALLKTLEEPPAETWFFLATREPERLLATLRSRCRLHYLAPPPEQYAVTWLSREVTMSQDALLAALRLSAGSPGAALALFQGDNWQARETLCQALAYSVPSGDWYSLLAALNHEQAPARLHWLATLLMDALKRHHGAAQVTNVDVPGLVAELANHLSPSRLQAILGDVCHIREQLMSVTGINRELLITDLLLRIEHYLQPGVVLPVPHL
chain 4: MTSRRDWQLQQLGITQWSLRRPGALQGEIAIAIPAHVRLVMVANDLPALTDPLVSDVLRALTVSPDQVLQLTPEKIAMLPQGSHCNSWRLGTDEPLSLEGAQVASPALTDLRANPTARAALWQQICTYEHDFFPRND
chain 5: MKNATFYLLDNDTTVDGLSAVEQLVCEIAAERWRSGKRVLIACEDEKQAYRLDEALWARPAESFVPHNLAGEGPRGGAPVEIAWPQKRSSSRRDILISLRTSFADFATAFTEVVDFVPYEDSLKQLARERYKAYRVAGFNLNTATWK
As to B1, the “rate of β-clamp closing on DNA-SSB (stopped-flow, β-AF488_(2) fluorescence): γ complex lacking χ (Δχ) against WT γ complex” value was around 5 fold.

The values above are taken from publication PMC13213242, “A novel ψ–χ fusion protein for unravelling the contributions of χ to DNA replication and repair” (Nucleic Acids Research, 2026).
